Literature values, collected in patent publication US8293868B2 (priority 2004, dated 2012).

Key:
[1] = system: voltage-gated calcium channel currents
insects = settings: injection

## omega-ACTX-Hv1a
[1]
  selectivity of calcium channel current inhibition, insect versus mammalian: selectively inhibit insect, as opposed to mammalian, voltage-gated calcium channel currents
insects
  symptoms in injected insects (previously characterized toxin): spastic paralysis followed by death
